Assay results taken from US7112586B2, “Substituted diamine derivatives useful as motilin antagonists” (Ortho-McNeil Pharmaceutical, Inc., priority 2000, dated 2006).

Chains of the proteins cited; added tags and fusions are not shown. Residues count along the entry.
UniProt G1T803, 1-400: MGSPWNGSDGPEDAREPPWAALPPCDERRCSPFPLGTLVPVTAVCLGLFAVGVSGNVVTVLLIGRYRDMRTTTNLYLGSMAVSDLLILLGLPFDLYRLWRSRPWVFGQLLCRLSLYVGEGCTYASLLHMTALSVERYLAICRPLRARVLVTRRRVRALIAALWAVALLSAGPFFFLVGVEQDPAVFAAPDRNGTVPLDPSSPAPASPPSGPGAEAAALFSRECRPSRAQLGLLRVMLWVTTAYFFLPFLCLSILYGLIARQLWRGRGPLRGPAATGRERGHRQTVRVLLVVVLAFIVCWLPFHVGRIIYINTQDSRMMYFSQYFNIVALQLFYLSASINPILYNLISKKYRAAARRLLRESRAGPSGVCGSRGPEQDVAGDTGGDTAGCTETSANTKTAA

Legend:
[1] = biological target: Motilin Receptor (Oryctolagus cuniculus, UniProt G1T803); test: Motilin receptor binding, rabbit colon membranes, 125I porcine motilin; conditions: for IC50: read-out: Rabbit Colon IC50
[2] = system: motilin induced contraction; test: Rabbit tissue bath procedure: inhibition of motilin induced contraction of duodenum segments; parameters: species or system New Zealand White rabbit; conditions: read-out: Tissues IC50, 3 nM porcine motilin induced contraction

Row | SMILES | Rabbit Colon % Inh @1 mM [1] [%] | IC50 [1] [µM] | IC50 [2] [µM]
1 | O=C(CC1(CC(=O)N(Cc2ccc(F)cc2)c2cccc(OCCN3CCOCC3)c2)CCCC1)N(CCc1ccccc1)Cc1ccccc1 | 62 | 0.41 | –
2 | CC(C)(CCC(=O)N(Cc1ccc(F)cc1)c1cccc(OCCN2CCOCC2)c1)C(=O)N(CCc1ccccc1)Cc1ccccc1 | 99 | 0.2 | 0.067
3 | CC(CCC(=O)N(CCc1ccccc1)Cc1ccccc1)C(=O)N(Cc1ccc(F)cc1)c1cccc(OCCN2CCOCC2)c1 (stereo not shown) | 61 | 0.96 | –
4 | Cc1c(OCCN2CCCC2)cccc1N(C[C@@H]1CCC[C@H](N(Cc2cccc([N+](=O)[O-])c2)C(=O)C(Cl)(Cl)Cl)C1)C(=O)c1ccc(F)cc1 | 91 | 0.009 | 0.048
